This assay concerns the target recombinant human GST-SYK (Homo sapiens, UniProt P43405). The assay can be described thus: Homogeneous Time-Resolved Fluorescence (HTRF) assay for the recombinant human Syk enzyme. Type of assay: biochemical.
[1] abbreviates: read-out: rhSYK Activity, IC50 given as class symbols, tested form: formate.

Our source for the IC50 values is US9376418B2, “Substituted pyridine spleen tyrosine kinase (SYK) inhibitors” (Merck Sharp & Dohme Corp., priority 2012, dated 2016).

Read-outs that look alike come from different tables or passages of the source.

`Cc1cc(Nc2nccc(C(F)(F)F)n2)cc(-c2cncc(Nc3ccncc3)c2)c1`: the IC50 under setting [1] was less than 100 nM. Still for that read-out and setting: for `Cc1cc(Nc2nccc(C(F)(F)F)n2)cc(-c2cncc(N3CCNC(=O)C3(C)C)c2)c1` the value was less than 100 nM; for `Cc1cc(Nc2nccc(C(F)(F)F)n2)cc(-c2cncc(N3CCN(C)C(=O)C3)c2)c1`, less than 100 nM; for `Cc1cc(Nc2nccc(C(F)(F)F)n2)cc(-c2cncc(N3CC(O)C3)c2)c1`, less than 100 nM.

Consider `Cc1cc(Nc2nccc(C(F)(F)F)n2)cc(-c2cncc(N3CCOCC3)c2)c1`, for which the IC50 under setting [1] is less than 100 nM. With `Cc1cc(Nc2nccc(C(F)(F)F)n2)cc(-c2cncc(N3CCCC34CCCNC4=O)c2)c1` (stereo not drawn), under setting [1], the IC50 is less than 100 nM. The same measure, in the same setting: then `Cc1cc(Nc2nccc(C(F)(F)F)n2)cc(-c2cncc(Nc3ccon3)c2)c1`, with 100 to 1000 nM. Same read-out and setting: then `Cc1cc(Nc2nccc(C(F)(F)F)n2)cc(-c2cncc(N3CCC4(CC3)OCCO4)c2)c1`, with less than 100 nM; and `Cc1cc(Nc2nccc(C(F)(F)F)n2)cc(-c2cncc(NCc3ccncc3)c2)c1`, with less than 100 nM.

`Cc1cc(Nc2nccc(C(F)(F)F)n2)cc(-c2cncc(C(=O)NC3CC3)c2)c1`: under “read-out: rhSYK Activity, IC50 given as class symbols, tested form: TFA salt”, the IC50 was less than 100 nM.

Regarding `COC(=O)C1CCC(O)(c2cc(-c3cc(C)cc(Nc4nccc(C(F)(F)F)n4)c3)ccn2)CC1(C)C` (stereo not drawn), the IC50 (read-out: rhSYK Activity, IC50 given as class symbols, tested form: free base) was 100 to 1000 nM.

Take `Cc1cc(Nc2nccc(C(F)(F)F)n2)cc(-c2cncc(N3CCC(C(N)=O)CC3)c2)c1`: the IC50 under setting [1] was less than 100 nM. For `Cc1cc(Nc2nccc(C(F)(F)F)n2)cc(-c2cncc(N3CCCC34CCNC4=O)c2)c1` (stereo not drawn), the 50% inhibitory concentration (IC50) under setting [1] was less than 100 nM. Turning to `Cc1cc(Nc2nccc(C(F)(F)F)n2)cc(-c2cncc(N3CCC(O)C3)c2)c1` (stereo not drawn), under setting [1], the IC50 is less than 100 nM.

Turning to `Cc1cc(Nc2nccc(C(F)(F)F)n2)cc(-c2cncc(N3CCNC(=O)CC3)c2)c1`, under setting [1], the IC50 is less than 100 nM. Consider `Cc1cc(Nc2nccc(C(F)(F)F)n2)cc(-c2cncc(N3CCN(C)CC3)c2)c1`, for which the IC50 under setting [1] is less than 100 nM. Still for that read-out and setting: for `Cc1cc(Nc2nccc(C(F)(F)F)n2)cc(-c2cncc(N3CCNC(=O)C3)c2)c1` the value was less than 100 nM. In the case of `Cc1cc(Nc2nccc(C(F)(F)F)n2)cc(-c2cncc(N3CCCNC(=O)C3)c2)c1`, the IC50 (read-out: rhSYK Activity, IC50 given as class symbols, tested form: TFA salt, formate) is less than 100 nM.
